From the Kinase Knowledgebase extract (Sharma et al. 2016)

By UniProt entry, the sequences of proteins in these tests, tags left out. Where a name states a change or a piece, a line headed by the entry shows the natural chain unless it says otherwise.
UniProt P48736: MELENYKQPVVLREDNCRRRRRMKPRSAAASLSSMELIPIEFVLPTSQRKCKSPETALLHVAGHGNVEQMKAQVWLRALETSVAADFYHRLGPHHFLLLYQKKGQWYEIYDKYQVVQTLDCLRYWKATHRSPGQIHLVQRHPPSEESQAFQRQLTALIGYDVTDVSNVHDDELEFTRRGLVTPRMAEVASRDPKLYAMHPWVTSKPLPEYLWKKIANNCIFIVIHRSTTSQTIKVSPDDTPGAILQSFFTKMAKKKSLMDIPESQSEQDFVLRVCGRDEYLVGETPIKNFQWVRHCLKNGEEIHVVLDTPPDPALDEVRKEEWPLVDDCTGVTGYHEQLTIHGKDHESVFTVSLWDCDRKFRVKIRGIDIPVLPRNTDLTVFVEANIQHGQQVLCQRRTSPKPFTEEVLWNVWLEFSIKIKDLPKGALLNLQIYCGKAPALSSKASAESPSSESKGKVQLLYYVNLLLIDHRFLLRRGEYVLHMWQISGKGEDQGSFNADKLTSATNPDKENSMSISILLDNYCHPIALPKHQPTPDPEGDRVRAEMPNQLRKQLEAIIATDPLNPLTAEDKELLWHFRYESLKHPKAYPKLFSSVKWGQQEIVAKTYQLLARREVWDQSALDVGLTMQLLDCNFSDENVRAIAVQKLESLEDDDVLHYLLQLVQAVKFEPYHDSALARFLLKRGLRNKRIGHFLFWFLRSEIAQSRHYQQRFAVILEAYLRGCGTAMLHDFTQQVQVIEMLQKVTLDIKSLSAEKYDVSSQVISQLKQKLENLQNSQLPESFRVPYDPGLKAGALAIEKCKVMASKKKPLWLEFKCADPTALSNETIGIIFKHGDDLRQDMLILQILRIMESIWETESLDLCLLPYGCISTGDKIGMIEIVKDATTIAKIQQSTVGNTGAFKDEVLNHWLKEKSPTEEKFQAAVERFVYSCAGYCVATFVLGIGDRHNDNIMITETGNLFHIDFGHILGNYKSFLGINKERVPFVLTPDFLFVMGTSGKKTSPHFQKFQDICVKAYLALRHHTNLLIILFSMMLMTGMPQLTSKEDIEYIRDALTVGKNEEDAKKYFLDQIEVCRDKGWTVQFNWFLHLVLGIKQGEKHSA
UniProt P42338: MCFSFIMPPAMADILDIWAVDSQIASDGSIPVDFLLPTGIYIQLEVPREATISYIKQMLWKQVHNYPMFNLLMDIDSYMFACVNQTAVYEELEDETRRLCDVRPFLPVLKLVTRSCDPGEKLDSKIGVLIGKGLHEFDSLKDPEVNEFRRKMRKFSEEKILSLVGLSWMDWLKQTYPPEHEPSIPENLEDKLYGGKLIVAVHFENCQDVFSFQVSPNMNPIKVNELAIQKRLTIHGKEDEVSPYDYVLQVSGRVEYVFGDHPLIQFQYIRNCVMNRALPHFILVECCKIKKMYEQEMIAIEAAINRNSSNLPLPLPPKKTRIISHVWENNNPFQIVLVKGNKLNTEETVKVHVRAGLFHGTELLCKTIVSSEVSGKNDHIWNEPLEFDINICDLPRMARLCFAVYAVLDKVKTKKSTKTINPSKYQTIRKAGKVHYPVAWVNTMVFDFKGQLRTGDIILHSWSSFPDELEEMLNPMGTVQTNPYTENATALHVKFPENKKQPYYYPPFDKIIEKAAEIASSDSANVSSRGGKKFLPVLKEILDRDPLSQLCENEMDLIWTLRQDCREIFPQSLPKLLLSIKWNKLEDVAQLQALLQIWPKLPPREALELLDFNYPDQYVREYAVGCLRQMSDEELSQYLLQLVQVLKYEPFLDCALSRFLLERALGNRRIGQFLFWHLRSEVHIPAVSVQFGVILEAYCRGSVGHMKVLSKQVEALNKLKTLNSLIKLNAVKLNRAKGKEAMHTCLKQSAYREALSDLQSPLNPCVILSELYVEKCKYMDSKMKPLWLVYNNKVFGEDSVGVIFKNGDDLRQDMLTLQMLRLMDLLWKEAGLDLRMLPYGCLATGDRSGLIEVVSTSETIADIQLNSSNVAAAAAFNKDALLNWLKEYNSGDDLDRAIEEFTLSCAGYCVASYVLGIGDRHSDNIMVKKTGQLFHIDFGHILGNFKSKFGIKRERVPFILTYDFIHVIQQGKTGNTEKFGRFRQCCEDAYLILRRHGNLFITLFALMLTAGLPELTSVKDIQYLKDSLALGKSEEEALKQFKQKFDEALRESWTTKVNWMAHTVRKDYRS

Legend:
[1] = biological target: PIK3CG (UniProt P48736); test: PIK3-gamma Kinase Inhibition
[2] = biological target: PIK3CB (UniProt P42338); test: PIK3-beta Kinase Inhibition

- IC50 [1]: 38 µM
- IC50 [2]: 2.9 µM
SMILES: O=c1cc(N2CCOCC2)oc2c(-c3ccccc3)cccc12
